Our source for the relative growth values is published antibiotic growth screens (doi:10.1038/s41589-023-01349-8).

The list shows a part of the results.

For this assay, the system named is A. baumannii ATCC 17978. Put plainly: relative growth (fraction of control); higher = less inhibition. The note with it: 50 µM.
`CC(C)CC#Cc1ccc2c(c1)O[C@@H](CN(C)C(=O)NC1CCCC1)[C@@H](C)CN([C@@H](C)CO)S2(=O)=O` yielded a relative growth of 1.01.

With `COCC#Cc1cnc2c(c1)C(=O)N([C@H](C)CO)C[C@H](C)[C@@H](CN(C)S(=O)(=O)c1cccc(OC)c1)O2`, the relative growth was 1.03.

As for `O=C(C1=C[C@@H](c2coc3ccccc3c2=O)C[C@@H](OCCCCO)O1)N1CCN(Cc2ccc3c(c2)OCO3)CC1`, the relative growth worked out at 0.818.

`CO[C@@H]1CN(C)C(=O)c2ccc(NC(=O)c3ccccc3)cc2OC[C@H](C)N(C(=O)CN(C)C)C[C@H]1C` yielded a relative growth of 1.17.

As for `Nc1nnc(N[C@H]2CCCCNC2=O)[nH]1`, the relative growth came out at 0.748.

For the molecule `CSc1nc(-c2ccccc2)cc(-c2cccs2)c1C#N`, the relative growth turned out to be 1.11.

For `Fc1ccc(C2=NNC3=NCCN3C2)cc1F`, the relative growth stood at 0.965.

The molecule `CCc1c(C)[nH]c(N2CCOCC2)nc1=O` displayed a relative growth of 0.886.

`OC[C@H]1O[C@@](CO)(O[C@@H]2O[C@H](CO)[C@@H](O)[C@H](O)[C@H]2O)[C@@H](O[C@@H]2O[C@H](CO)[C@@H](O)[C@H](O)[C@H]2O)[C@@H]1O` yielded a relative growth of 1.24.

As for `Cc1ccccc1S(=O)(=O)N(C)C[C@@H]1Oc2ccc(NC(=O)Nc3cc(Cl)cc(Cl)c3)cc2CC(=O)N([C@@H](C)CO)C[C@@H]1C`, the relative growth was 0.979.

Take `CO/N=C(\C(=O)NC1C(=O)N2C(C(=O)OCOC(=O)C(C)(C)C)=C(/C=C\c3scnc3C)CSC12)c1csc(N)n1` (stereo not drawn): the relative growth came out at 0.835.

With `N[C@@H](C(=O)N[C@@H]1C(=O)N2C(C(=O)O)=C(Cl)CS[C@H]12)c1ccccc1`, the relative growth came to 0.16.

With `O=C(C[C@@H]1CC[C@@H]2[C@H](COC[C@H](O)CN2CC2CCOCC2)O1)N1CCOCC1`, the relative growth is 1.06.

Regarding `COc1ccc(C(=O)NCc2ccc(OCCN(C)C)cc2)cc1OC`, the relative growth worked out at 1.06.

In turn, `COc1ccccc1O[C@@H](C)C(=O)NN` came in with a relative growth of 1.05.

The molecule `O=C(CS)NCCCCCCNC(=O)[C@@H]1C[C@@H]2C(=O)N[C@@H](Cc3ccccc3)C(=O)N2[C@@H]1c1ccc(O)cc1` gave a relative growth of 0.969.

`O=C(C[C@H]1CC[C@@H](NC(=O)Cc2ccccn2)[C@H](CO)O1)NCCCN1CCOCC1` returned a relative growth of 0.933.

Consider `CCN(CC)C(=O)C1(c2ccccc2)CC1CN.Cl` (stereo not drawn), for which the relative growth is 0.969.

Molecule `COCC#Cc1ccc2c(c1)O[C@@H](CN(C)Cc1ccc(F)cc1)[C@H](C)CN([C@H](C)CO)S2(=O)=O` showed a relative growth of 0.99.

In turn, `O=C(N[C@@H]1CC[C@@H](CCNS(=O)(=O)c2ccccc2)O[C@H]1CO)c1cnccn1` registered a relative growth of 1.07.

On to `CCOC(=O)CNc1nnc(N)[nH]1`, for which the relative growth amounted to 1.17.

`Cc1ccccc1Nc1nnc(C)c(=O)n1N` displayed a relative growth of 1.11.

`Cc1ccsc1/C=C/C1=NCCCN1C.O=C(O)CC(O)(CC(=O)O)C(=O)O` came in with a relative growth of 0.929.
